Measurements taken from patent US20050124032A1 (priority 2002, published 2005).

How the values were obtained:
X. dendrorhous Y-2476 = assay: Flask fermentation of X. dendrorhous with compounds added to the culture medium; type: cell-based, Xanthophyllomyces dendrorhous; conditions: for Astaxanthin yield with the compound added to the culture medium / Astaxanthin yield relative to the original culture medium R4-20: flask fermentation, duroquinone 25-50 μM, retinal 35 μM, trisporic acids 50-100 μg/ml; for Astaxanthin yield with the compound added to the culture medium: 6-7 days, glutamate 5.5 mg/ml; for Astaxanthin yield relative to the original culture medium R4-20: FIG. 6, glutamate 5.5 mg/ml instead of cottonseed flour
X. dendrorhous = assay: Fermentation of X. dendrorhous in an 800-litre fermenter with addition of duroquinone; conditions: 50 μM duroquinone
[1] = duroquinone 25-50 μM added during first 24 hours of fermentation

| Compound | Astaxanthin yield with the compound added to the culture medium (X. dendrorhous Y-2476) | Astaxanthin yield relative to the original culture medium R4-20 (X. dendrorhous Y-2476) | Increase in astaxanthin yield (X. dendrorhous) | Increase of the yield of astaxanthin (X. dendrorhous Y-2476; [1]) | Overall increase in specific productivity of the biomass (X. dendrorhous Y-2476; [1]) |
| --- | --- | --- | --- | --- | --- |
| CC1=C(/C=C/C(C)=C/C=C/C(C)=C/C=O)C(C)(C)CCC1 | at least 225 mg/l | increases in yield | – | – | – |
| CC1=C(C)C(=O)C(C)=C(C)C1=O [duroquinone] | at least 215 mg/l | increases in yield | 15-20% | 10-20% | 30-60% |
| glutamate | ≥ 180 mg/L | increases in yield | – | – | – |
| trisporic acids | ≥ 200 mg/L | increases in yield | – | – | – |
